Laboratory results as given in PubChem BioAssay AID504937 (National Center for Advancing Translational Sciences (NCATS), 2011).
This is a selection; strong and weak results do not stand in their true shares. The source made the active and inactive calls. Calls come from the whole dose curve; as a rule, active = well fitted inhibition curve with a large enough effect; inconclusive = small, poorly fitted or top-dose-only effect; inactive = no such curve, though single readings can be large or run the other way.

By UniProt entry, the sequences of proteins in these tests, tags left out. Residues count along the entry.
UniProt P17405, 47-631 limits assumed: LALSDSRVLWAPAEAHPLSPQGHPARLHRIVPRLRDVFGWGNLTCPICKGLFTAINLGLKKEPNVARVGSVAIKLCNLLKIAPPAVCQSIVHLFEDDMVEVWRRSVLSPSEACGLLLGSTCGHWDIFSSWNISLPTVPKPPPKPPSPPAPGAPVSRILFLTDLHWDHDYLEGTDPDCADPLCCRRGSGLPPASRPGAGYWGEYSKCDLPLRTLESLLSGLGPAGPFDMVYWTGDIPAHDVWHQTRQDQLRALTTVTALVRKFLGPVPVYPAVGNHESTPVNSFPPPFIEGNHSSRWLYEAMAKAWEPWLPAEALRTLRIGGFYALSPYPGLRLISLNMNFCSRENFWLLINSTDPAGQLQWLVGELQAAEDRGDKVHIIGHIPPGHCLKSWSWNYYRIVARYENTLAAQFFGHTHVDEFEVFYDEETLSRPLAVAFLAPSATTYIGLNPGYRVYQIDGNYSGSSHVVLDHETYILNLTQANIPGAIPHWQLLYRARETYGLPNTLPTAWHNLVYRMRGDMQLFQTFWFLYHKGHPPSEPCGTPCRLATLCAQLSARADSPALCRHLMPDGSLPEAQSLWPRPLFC

Molecular target: Sphingomyelin phosphodiesterase (Homo sapiens) (UniProt P17405)
Assay: Inhibitors of Secretory Acid Sphingomyelinase (S-ASM): qHTS
Conditions: placental ASM, HMU-PC fluorogenic substrate (series up to 57.5 µM), 60 min; at 57.5 µM (top of the series)

SMILES	activity change, negative = inhibition
CCC(=O)N(c1ccccc1)C1(COC)CCN(CCc2cccs2)CC1	inactive: -1.24%
CCC(=O)N(c1ccccc1)C1(COC)CCN(CCn2nnn(CC)c2=O)CC1	inactive: 4.11%
